Data reported in patent US20190125869A1, “PULSED ELECTROMAGNETIC THERAPY FOR DIRECTING AGENTS TO CANCER CELLS” (MMTC, Inc., priority 2017, published 2019).
Like-named read-outs stand apart in the source and are kept apart here.

Tests used:
[1] = tested on: AT2 prostatic tumor of rats; conditions: 20 mg in 0.5 ml saline into the tail vein
normal muscle tissue = normal muscle tissue exposed to microwave pulsing

fluorescin isothiocyanate Dextran
uptake of Dextran by the cells of the tumors ([1]; non-pulsed contralateral tumors): almost no uptake | uptake of Dextran by the cells of the tumors ([1]; tumors pulsed with microwaves (2.82 GHz, 30 minutes), phase microscope/ultraviolet light): significant uptake | uptake of Dextran by the cells of the tumors ([1]; tumors pulsed with microwaves (2.82 GHz, 30 minutes), phase microscope/ultraviolet light, listed as fluorescin Dextran): sharply increase the uptake | uptake of Dextran by muscle (healthy) cells (normal muscle tissue): no significant uptake
